Assay results from patent publication US12195427B2.

The chains behind the UniProt entries cited, without tags or fusion partners. Residues count along the entry.
UniProt O00187, 445-686 limits assumed: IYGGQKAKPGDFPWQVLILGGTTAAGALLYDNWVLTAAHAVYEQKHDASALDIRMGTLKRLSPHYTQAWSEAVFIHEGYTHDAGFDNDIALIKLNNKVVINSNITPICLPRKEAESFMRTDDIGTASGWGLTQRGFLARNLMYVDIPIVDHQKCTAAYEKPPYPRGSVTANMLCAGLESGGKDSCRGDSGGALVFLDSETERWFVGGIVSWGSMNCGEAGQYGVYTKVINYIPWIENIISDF

Molecular target: MASP-2 (CCP1-CCP2-SP) (Homo sapiens (Human), UniProt O00187)
Assay: Enzymatic Assay for MASP-2
Assay type: biochemical

COC(=O)CCCCCN[C@H](CCc1ccccc1)C(=O)N[C@@H](C)C(=O)NCc1ccc(C(=N)N)cc1
MASP-2 vs. thrombin selectivity: * (1.0 to 5.0-fold)
